This note sets out measurements from US20040166060A1, “Liposomal encapsulation of alpha particle emittors and uses thereof” (Sloan Kettering Institute for Cancer Research, priority 2000, published 2004).

For this data set, the system named is ovarian carcinoma. Set-up: species or system Balb/c nu/nu mice. Particulars: mouse, in vivo. The text has this:
In more than 40 mouse experiments, intraperitoneal injection of 5×10^6 previously passaged SKOV3 cells in 4-6 week old female Balb/c nu/nu mice has yielded 100% tumor take. By three weeks, discrete, mm-sized tumor nodules are observed around the spleen; in many cases such nodules are also found on the surface of the GI tract and liver. By four weeks discrete tumor nodules are replaced by contiguous masses of tumor around the spleen, GI tract and liver. At this time ascites fluid is also observed.
MicroPET and MRI-based pre-clinical biodistribution and localization data have been obtained using ^86Y-Herceptin (HER) antibody (anti-HER2/neu) against ovarian carcinoma (38-39). […] Optical images of FITC-Herceptin have also been obtained to provide a high resolution assessment of Herceptin targeting as shown in FIG. 19. This methodology is also used to evaluate tumor targeting of liposomes immunolabeled with Herceptin.

As for “^86Y-Herceptin: 86Y-labeled Herceptin (HER) antibody (anti-HER2/neu)”, the localization entry is reported as “localize to sites of disease with minimal normal organ uptake”.
